Measured values from BindingDB's records for doi:10.1021/bi300955k (Dalhousie University, 2012).

Protein sequences, listed by entry. Tags and fused reporters are not part of them. Lines headed by an entry give the natural chain unless they say otherwise; changes in a name come on top.
UniProt P22303: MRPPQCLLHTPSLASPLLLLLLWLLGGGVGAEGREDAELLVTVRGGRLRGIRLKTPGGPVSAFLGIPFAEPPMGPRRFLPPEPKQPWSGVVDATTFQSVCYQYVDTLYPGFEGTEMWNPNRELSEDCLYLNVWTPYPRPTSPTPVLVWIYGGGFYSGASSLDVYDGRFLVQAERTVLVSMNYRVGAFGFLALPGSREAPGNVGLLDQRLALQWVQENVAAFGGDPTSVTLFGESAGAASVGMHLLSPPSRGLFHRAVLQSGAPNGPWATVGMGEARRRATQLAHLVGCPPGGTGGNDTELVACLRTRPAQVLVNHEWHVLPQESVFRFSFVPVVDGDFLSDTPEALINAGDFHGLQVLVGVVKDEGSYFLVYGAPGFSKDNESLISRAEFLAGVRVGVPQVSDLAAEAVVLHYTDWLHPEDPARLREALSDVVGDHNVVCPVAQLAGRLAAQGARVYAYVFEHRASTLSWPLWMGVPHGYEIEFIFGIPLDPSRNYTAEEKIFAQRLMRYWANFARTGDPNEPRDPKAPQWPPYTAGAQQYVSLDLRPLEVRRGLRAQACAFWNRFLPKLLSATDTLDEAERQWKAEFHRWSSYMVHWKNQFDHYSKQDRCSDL

Target: Acetylcholinesterase (Homo sapiens, UniProt P22303)
Assay: Inhibition Assay
Text: Inhibition constant using AChE or BuChE.

CC[N+](C)(CC)CCCn1c2cc(=N)ccc-2c2ccc(N)cc2c1-c1ccccc1 [Propidium Iodide, 2]
Ki: 9.73 µM
